Values quoted from earlier work as cited in patent US7628984B2, “Micronutrient formulations for pulmonary and heart health” (Premier Micronutrient Corporation, priority 2005, dated 2009).

Experiments:
[1] = tested on: 87,245 healthy nurses; conditions: cited from earlier work
[2] = intravenous administration; cited from earlier work
[3] = tested on: 39,910 male health professionals; conditions: 60 IU vitamin E per day vs less than 7.5 IU per day; cited from earlier work

What does the source list for Vitamin E?
lower relative risk of CAD ([1]; supplements of more than 100 mg per day for at least 2 years): 48%; lower relative risk of a major risk of CAD ([1]; top fifth vs lowest fifth of vitamin E intake, follow-up 8 years): 34%; dose that can cause clotting disorders (reversible by vitamin K) [2]: 2,000 IU/day; lower relative risk of CAD [3]: 36%
